# Reference: ChEMBL document CHEMBL2218924, “A broad activity screen in support of a chemogenomic map for kinase signalling research and drug discovery” (Biochem J, 2013)
# Protein sequences, listed by entry. Tags and fused reporters are not part of them. Lines headed by an entry give the natural chain unless they say otherwise; changes in a name come on top.
# UniProt P53350, whole entry: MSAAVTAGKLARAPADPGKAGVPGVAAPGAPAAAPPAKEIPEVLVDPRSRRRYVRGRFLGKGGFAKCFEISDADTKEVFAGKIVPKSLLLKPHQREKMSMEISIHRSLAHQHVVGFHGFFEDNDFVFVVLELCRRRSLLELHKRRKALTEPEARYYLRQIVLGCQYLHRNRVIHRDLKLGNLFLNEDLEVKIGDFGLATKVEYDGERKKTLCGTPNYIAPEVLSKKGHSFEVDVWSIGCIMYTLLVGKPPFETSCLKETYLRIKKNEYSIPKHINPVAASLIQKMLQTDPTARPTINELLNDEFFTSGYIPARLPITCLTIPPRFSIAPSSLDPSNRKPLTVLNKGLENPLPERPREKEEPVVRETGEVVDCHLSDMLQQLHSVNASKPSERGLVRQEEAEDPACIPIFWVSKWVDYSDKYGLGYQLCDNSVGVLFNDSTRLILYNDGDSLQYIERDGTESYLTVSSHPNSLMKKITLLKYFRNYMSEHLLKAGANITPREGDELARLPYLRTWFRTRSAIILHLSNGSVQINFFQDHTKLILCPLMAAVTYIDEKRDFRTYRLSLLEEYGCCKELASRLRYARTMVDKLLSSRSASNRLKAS
# UniProt Q16644, whole entry, looked up: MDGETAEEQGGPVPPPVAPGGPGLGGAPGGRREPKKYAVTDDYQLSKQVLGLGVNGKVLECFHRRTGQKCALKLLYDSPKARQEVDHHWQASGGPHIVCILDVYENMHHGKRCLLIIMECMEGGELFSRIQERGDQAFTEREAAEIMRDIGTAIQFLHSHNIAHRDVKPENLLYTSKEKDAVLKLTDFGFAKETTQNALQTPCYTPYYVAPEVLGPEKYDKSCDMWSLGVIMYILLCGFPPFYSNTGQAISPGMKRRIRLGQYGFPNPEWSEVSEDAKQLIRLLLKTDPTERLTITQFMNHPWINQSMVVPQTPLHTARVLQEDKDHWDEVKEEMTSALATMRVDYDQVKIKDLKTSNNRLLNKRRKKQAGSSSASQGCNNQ
# UniProt P52564: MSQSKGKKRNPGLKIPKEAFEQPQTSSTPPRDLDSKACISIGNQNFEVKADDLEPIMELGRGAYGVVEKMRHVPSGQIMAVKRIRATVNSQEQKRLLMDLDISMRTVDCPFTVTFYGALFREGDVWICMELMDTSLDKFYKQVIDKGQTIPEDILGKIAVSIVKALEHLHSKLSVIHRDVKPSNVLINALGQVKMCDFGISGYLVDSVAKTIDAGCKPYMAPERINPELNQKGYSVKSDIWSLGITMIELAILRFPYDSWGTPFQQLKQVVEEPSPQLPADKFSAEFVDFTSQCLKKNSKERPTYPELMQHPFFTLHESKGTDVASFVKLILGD
# UniProt O43293: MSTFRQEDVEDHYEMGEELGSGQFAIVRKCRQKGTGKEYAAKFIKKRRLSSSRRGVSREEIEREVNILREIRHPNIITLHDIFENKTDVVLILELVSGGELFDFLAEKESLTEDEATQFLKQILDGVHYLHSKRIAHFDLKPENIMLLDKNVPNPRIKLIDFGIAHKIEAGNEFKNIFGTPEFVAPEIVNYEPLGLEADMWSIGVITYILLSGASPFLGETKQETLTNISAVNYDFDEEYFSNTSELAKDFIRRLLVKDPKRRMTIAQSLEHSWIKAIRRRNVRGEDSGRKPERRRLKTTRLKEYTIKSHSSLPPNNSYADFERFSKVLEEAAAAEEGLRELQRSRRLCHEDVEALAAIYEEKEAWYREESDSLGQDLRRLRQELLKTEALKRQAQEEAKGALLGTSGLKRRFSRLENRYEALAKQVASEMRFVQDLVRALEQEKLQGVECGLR
# UniProt P05771, whole entry, looked up: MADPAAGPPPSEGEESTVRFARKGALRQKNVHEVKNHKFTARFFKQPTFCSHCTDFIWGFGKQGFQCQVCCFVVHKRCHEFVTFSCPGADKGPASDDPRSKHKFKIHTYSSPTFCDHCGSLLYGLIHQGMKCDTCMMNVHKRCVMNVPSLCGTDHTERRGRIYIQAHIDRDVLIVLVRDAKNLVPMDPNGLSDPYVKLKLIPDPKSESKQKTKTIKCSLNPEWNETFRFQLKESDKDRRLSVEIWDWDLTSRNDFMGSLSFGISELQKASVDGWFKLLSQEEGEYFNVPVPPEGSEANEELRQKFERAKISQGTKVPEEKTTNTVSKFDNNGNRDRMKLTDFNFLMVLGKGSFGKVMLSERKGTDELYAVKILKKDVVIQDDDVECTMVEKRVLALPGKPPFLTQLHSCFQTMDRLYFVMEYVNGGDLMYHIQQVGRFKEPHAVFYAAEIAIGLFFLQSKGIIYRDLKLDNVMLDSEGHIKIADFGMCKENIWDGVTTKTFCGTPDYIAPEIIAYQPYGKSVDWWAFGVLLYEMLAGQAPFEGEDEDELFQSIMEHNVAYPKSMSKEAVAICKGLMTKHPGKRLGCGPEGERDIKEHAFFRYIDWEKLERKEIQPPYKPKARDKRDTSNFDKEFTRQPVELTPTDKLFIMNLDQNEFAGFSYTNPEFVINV
# UniProt Q00526: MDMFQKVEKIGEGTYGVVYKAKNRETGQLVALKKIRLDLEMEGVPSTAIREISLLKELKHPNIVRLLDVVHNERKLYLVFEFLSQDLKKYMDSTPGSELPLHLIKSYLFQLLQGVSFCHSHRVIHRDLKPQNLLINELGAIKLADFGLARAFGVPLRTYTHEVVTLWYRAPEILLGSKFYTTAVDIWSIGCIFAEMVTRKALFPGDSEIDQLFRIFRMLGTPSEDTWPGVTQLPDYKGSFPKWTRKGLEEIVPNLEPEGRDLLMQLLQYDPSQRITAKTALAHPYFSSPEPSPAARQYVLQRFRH
# UniProt Q15303, whole entry: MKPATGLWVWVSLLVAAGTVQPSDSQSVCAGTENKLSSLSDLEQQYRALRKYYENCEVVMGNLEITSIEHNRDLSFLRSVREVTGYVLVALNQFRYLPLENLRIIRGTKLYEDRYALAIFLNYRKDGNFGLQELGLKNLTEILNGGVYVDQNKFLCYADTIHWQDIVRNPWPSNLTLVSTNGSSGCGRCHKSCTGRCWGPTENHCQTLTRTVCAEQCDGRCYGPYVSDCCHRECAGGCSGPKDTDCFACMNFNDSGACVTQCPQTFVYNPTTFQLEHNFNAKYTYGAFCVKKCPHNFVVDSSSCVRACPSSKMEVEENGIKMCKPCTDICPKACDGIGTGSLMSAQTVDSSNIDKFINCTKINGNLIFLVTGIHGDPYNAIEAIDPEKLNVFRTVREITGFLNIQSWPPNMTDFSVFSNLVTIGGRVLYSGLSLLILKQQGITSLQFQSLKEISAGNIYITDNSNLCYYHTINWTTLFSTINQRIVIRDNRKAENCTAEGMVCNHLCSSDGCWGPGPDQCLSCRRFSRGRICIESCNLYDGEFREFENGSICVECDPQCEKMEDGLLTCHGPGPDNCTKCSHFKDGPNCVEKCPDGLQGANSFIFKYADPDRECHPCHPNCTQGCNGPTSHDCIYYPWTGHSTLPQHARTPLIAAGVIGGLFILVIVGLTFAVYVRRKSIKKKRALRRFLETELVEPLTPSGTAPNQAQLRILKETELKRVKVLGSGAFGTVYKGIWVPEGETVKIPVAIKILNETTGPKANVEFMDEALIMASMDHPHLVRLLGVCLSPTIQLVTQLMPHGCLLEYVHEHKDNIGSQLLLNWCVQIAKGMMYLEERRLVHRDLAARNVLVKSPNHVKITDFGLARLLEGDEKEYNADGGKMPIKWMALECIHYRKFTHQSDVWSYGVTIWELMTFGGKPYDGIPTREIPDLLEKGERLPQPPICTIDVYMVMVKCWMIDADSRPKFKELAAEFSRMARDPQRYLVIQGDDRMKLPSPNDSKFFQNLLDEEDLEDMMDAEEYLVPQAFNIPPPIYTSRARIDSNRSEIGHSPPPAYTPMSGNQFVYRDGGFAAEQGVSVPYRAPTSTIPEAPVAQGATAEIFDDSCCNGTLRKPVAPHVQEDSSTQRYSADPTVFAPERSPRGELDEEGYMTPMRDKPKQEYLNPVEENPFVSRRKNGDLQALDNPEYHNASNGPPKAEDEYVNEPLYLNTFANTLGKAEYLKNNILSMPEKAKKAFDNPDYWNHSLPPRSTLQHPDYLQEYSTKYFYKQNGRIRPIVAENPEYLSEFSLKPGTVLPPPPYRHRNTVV
# UniProt P49840: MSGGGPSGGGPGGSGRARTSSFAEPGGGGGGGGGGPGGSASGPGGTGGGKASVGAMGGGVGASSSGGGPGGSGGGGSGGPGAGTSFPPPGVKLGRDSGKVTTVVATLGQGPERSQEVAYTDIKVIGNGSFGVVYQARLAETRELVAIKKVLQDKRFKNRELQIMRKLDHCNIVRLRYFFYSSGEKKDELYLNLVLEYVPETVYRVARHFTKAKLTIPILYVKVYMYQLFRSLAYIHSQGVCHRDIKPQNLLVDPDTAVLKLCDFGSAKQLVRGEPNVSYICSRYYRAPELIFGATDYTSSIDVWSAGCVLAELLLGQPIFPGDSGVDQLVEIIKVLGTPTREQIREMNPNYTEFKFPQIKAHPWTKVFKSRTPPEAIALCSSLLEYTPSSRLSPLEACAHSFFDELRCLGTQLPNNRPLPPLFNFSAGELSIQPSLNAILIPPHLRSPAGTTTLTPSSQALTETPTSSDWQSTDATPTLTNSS
# UniProt Q15759, whole entry: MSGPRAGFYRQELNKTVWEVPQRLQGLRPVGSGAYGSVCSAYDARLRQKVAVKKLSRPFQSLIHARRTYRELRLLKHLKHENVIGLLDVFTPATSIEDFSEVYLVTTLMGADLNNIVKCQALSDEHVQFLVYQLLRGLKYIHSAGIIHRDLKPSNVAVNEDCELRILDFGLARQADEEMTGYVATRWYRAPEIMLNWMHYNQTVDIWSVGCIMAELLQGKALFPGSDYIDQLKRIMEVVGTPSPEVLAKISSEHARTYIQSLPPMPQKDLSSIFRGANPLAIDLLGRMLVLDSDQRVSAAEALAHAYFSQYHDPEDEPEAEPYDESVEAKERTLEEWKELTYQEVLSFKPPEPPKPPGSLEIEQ
# UniProt Q96SB4, whole entry: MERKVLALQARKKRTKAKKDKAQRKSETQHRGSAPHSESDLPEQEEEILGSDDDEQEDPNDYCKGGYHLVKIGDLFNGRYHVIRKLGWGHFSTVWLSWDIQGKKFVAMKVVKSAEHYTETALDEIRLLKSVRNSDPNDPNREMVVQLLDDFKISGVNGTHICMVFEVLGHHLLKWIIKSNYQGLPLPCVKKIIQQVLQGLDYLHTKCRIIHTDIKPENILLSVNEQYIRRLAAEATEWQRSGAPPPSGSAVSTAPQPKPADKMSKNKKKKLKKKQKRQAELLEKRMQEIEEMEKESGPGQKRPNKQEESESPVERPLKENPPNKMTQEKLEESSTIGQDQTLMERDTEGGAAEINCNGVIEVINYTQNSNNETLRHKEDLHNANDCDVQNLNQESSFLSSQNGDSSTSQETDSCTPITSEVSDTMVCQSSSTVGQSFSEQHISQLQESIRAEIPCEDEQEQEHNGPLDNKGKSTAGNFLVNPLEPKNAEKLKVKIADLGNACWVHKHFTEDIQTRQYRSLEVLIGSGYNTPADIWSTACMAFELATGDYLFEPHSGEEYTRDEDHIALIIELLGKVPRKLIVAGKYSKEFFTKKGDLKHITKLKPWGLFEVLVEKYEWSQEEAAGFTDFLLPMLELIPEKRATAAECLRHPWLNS
# UniProt P36897: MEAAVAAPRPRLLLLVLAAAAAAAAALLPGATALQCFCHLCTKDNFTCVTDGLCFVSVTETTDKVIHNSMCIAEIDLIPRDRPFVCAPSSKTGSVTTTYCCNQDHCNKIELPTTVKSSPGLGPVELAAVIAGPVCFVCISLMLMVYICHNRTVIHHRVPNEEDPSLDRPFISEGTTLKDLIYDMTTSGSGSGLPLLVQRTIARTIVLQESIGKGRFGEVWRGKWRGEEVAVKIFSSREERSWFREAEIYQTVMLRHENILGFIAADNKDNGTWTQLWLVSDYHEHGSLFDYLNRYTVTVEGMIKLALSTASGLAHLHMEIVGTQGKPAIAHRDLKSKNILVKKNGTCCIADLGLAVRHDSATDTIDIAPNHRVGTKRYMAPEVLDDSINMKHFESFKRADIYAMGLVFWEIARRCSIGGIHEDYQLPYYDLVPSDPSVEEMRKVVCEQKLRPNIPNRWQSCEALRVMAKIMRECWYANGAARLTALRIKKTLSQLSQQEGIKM
# UniProt O14733: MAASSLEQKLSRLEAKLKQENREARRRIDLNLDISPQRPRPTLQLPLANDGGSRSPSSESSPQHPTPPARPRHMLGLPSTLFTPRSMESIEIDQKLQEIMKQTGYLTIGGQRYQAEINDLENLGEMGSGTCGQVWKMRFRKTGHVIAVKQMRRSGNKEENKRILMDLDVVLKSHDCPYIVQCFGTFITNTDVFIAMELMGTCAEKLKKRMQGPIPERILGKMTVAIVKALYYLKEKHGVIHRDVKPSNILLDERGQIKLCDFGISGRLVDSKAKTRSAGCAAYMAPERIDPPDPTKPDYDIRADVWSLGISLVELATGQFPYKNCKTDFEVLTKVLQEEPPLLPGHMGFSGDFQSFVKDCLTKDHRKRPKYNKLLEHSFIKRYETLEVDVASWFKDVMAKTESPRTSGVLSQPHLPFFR
# For some assays here: This list holds what a sample rich in strong results left over. Only a part is listed here, and it is no random draw.
# Tests used:
# [1] = molecular target: Mitogen-activated protein kinase kinase kinase 5 (Homo sapiens) (UniProt Q99683); details: at 10 µM
# [2] = molecular target: Casein kinase II subunit alpha' (Homo sapiens) (UniProt P19784); details: at 1 µM;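 also: residual kinase activity of CSNK2A2 expressed as percent of untreated control, so lower values mean stronger inhibition, with Jnk Inhibitor II at 100 µM as reference inhibitor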
# [3] = molecular target: Calcium/calmodulin-dependent protein kinase type 1 (Homo sapiens) (UniProt Q14012); details: at 1 µM
# [4] = molecular target: Epidermal growth factor receptor (Homo sapiens) (UniProt P00533); details: at 1 µM
# [5] = molecular target: Epidermal growth factor receptor (Homo sapiens) (UniProt P00533); details: at 10 µM
# [6] = molecular target: Ephrin type-A receptor 2 (Homo sapiens) (UniProt P29317); details: at 1 µM
# [7] = molecular target: Ephrin type-B receptor 3 (Homo sapiens) (UniProt P54753); details: at 1 µM
# [8] = molecular target: Fibroblast growth factor receptor 4 (Homo sapiens) (UniProt P22455); details: at 1 µM
# [9] = molecular target: Tyrosine-protein kinase Fer (Homo sapiens) (UniProt P16591); details: at 1 µM
# [10] = molecular target: Protein kinase C eta type (Homo sapiens) (UniProt P24723); details: at 1 µM
# [11] = molecular target: T1, Protein kinase C iota type (Homo sapiens) (UniProt P41743); details: at 1 µM
# T1 sequence (whole entry): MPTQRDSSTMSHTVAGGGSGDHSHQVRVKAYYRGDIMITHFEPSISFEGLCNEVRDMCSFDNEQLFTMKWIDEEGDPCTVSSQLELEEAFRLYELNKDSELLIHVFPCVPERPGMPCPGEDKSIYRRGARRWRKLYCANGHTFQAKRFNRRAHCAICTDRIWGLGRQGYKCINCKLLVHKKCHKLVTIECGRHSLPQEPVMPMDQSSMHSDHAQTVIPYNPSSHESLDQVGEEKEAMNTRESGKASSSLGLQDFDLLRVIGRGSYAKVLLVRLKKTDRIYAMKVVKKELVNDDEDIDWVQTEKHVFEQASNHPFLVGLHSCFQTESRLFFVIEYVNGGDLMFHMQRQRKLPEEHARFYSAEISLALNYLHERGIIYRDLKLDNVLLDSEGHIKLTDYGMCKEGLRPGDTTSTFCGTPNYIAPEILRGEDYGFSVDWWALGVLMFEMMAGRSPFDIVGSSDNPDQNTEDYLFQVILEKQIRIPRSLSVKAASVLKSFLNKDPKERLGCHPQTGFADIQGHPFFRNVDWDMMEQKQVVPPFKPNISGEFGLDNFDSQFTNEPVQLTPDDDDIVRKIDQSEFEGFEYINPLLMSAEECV
# [12] = molecular target: T1, Protein kinase C iota type (Homo sapiens); details: at 10 µM
# [13] = molecular target: Serine/threonine-protein kinase D2 (Homo sapiens) (UniProt Q9BZL6); details: at 10 µM
# [14] = molecular target: T2, cGMP-dependent protein kinase 1 (Homo sapiens) (UniProt Q13976); details: at 1 µM
# T2 sequence (whole entry): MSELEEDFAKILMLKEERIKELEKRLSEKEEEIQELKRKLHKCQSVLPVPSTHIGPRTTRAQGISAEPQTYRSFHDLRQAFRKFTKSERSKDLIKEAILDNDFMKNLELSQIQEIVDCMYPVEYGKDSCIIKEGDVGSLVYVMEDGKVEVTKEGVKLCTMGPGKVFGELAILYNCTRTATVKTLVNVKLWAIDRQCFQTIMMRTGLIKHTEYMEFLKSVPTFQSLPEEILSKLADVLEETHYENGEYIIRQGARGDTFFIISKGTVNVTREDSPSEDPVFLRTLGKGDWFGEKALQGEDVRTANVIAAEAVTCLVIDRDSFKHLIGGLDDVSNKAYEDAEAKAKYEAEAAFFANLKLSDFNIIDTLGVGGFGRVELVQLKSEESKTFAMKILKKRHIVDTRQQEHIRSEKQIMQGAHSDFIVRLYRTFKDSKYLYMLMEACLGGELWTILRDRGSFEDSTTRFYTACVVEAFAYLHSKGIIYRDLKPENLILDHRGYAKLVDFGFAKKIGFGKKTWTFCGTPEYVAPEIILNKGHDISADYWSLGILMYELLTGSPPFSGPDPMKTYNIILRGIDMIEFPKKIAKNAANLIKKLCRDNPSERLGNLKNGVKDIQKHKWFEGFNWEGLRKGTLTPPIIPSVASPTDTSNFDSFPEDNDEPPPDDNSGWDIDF
# [15] = molecular target: Phosphorylase b kinase gamma catalytic chain, liver/testis isoform (Homo sapiens) (UniProt P15735); details: at 1 µM
# [16] = molecular target: Serine/threonine-protein kinase PLK1 (Homo sapiens) (UniProt P53350); details: at 1 µM
# [17] = molecular target: Rho-associated protein kinase 1 (Homo sapiens) (UniProt Q13464); details: at 1 µM
# [18] = molecular target: Mitogen-activated protein kinase 13 (Homo sapiens) (UniProt O15264); details: at 1 µM
# [19] = molecular target: Insulin receptor (Homo sapiens) (UniProt P06213); details: at 1 µM
# [20] = molecular target: Insulin receptor (Homo sapiens) (UniProt P06213); details: at 1 µM; remark: listed apart in the source
# [21] = molecular target: Mitogen-activated protein kinase 8 (Homo sapiens) (UniProt P45983); details: at 1 µM
# [22] = molecular target: MAP kinase-activated protein kinase 3 (Homo sapiens) (UniProt Q16644); details: at 1 µM
# [23] = molecular target: Dual specificity mitogen-activated protein kinase kinase 6 (Homo sapiens) (UniProt P52564); details: at 10 µM
# [24] = molecular target: Death-associated protein kinase 3 (Homo sapiens) (UniProt O43293); details: at 1 µM
# [25] = molecular target: T3, Eukaryotic elongation factor 2 kinase (Homo sapiens) (UniProt O00418); details: at 1 µM
# T3 sequence (whole entry): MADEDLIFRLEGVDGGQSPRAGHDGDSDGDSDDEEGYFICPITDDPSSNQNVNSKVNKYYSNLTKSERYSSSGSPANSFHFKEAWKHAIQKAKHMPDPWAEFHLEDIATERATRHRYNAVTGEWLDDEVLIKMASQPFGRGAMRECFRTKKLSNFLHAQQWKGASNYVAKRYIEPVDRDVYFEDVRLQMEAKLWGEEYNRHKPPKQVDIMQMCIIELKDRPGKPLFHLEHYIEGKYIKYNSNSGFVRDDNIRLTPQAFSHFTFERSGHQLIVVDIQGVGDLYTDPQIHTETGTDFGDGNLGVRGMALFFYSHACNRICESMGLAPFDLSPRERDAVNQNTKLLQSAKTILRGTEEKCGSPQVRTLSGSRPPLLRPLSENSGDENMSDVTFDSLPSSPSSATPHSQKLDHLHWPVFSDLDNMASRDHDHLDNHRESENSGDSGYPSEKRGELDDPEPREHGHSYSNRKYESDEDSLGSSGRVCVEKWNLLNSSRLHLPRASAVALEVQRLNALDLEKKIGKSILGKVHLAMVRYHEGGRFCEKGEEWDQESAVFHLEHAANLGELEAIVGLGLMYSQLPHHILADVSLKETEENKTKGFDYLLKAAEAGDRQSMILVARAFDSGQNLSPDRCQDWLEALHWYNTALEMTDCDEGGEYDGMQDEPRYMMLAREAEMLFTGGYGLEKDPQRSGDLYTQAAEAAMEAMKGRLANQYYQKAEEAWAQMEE
# [26] = molecular target: T3, Eukaryotic elongation factor 2 kinase (Homo sapiens); details: at 10 µM
# [27] = molecular target: Serine/threonine-protein kinase mTOR (Homo sapiens) (UniProt P42345); details: at 1 µM
# [28] = molecular target: Serine/threonine-protein kinase mTOR (Homo sapiens) (UniProt P42345); details: at 10 µM
# [29] = molecular target: Serine/threonine-protein kinase PAK 5 (Homo sapiens) (UniProt Q9P286); details: at 1 µM
# [30] = molecular target: RAC-alpha serine/threonine-protein kinase (Homo sapiens) (UniProt P31749); details: at 1 µM
# [31] = molecular target: Protein kinase C alpha type (Homo sapiens) (UniProt P17252); details: at 1 µM
# [32] = molecular target: Protein kinase C alpha type (Homo sapiens) (UniProt P17252); details: at 10 µM
# [33] = molecular target: Protein kinase C beta type (Homo sapiens) (UniProt P05771); details: at 1 µM
# [34] = molecular target: Protein kinase C gamma type (Homo sapiens) (UniProt P05129); details: at 1 µM
# [35] = molecular target: Protein kinase C epsilon type (Homo sapiens) (UniProt Q02156); details: at 10 µM
# [36] = molecular target: Tyrosine-protein kinase BTK (Homo sapiens) (UniProt Q06187); details: at 1 µM
# [37] = molecular target: CDK3/cyclin E (Homo sapiens) (UniProt P24864+O96020+Q00526); details: at 1 µM
# [38] = molecular target: Tyrosine-protein kinase CSK (Homo sapiens) (UniProt P41240); details: at 10 µM
# [39] = molecular target: Ephrin type-A receptor 5 (Homo sapiens) (UniProt P54756); details: at 1 µM
# [40] = molecular target: Receptor tyrosine-protein kinase erbB-4 (Homo sapiens) (UniProt Q15303); details: at 1 µM
# [41] = molecular target: Receptor tyrosine-protein kinase erbB-4 (Homo sapiens) (UniProt Q15303); details: at 10 µM
# [42] = molecular target: Glycogen synthase kinase-3 alpha (Homo sapiens) (UniProt P49840); details: at 10 µM
# [43] = molecular target: Serine/threonine-protein kinase pim-1 (Homo sapiens) (UniProt P11309); details: at 1 µM
# [44] = molecular target: Rho-associated protein kinase 1 (Homo sapiens) (UniProt Q13464); details: at 10 µM
# [45] = molecular target: Macrophage-stimulating protein receptor (Homo sapiens) (UniProt Q04912); details: at 1 µM
# [46] = molecular target: Proto-oncogene tyrosine-protein kinase ROS (Homo sapiens) (UniProt P08922); details: at 10 µM
# [47] = molecular target: Mitogen-activated protein kinase 11 (Homo sapiens) (UniProt Q15759); details: at 1 µM
# [48] = molecular target: Mitogen-activated protein kinase 12 (Homo sapiens) (UniProt P53778); details: at 1 µM
# [49] = molecular target: Mitogen-activated protein kinase 13 (Homo sapiens) (UniProt O15264); details: at 10 µM
# [50] = molecular target: SRSF protein kinase 1 (Homo sapiens) (UniProt Q96SB4); details: at 1 µM
# [51] = molecular target: TGF-beta receptor type-1 (Homo sapiens) (UniProt P36897); details: at 1 µM
# [52] = molecular target: Inhibitor of nuclear factor kappa-B kinase subunit alpha (Homo sapiens) (UniProt O15111); details: at 1 µM
# [53] = molecular target: Mitogen-activated protein kinase 9 (Homo sapiens) (UniProt P45984); details: at 1 µM
# [54] = molecular target: MAP kinase-activated protein kinase 3 (Homo sapiens) (UniProt Q16644); details: at 10 µM
# [55] = molecular target: Dual specificity mitogen-activated protein kinase kinase 7 (Homo sapiens) (UniProt O14733); details: at 1 µM
# [56] = molecular target: Serine/threonine-protein kinase MRCK alpha (Homo sapiens) (UniProt Q5VT25); details: at 10 µM
# [57] = molecular target: Serine/threonine-protein kinase VRK2 (Homo sapiens) (UniProt Q86Y07); details: at 10 µM
# [58] = molecular target: Serine/threonine-protein kinase WNK2 (Homo sapiens) (UniProt Q9Y3S1); details: at 1 µM;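 also: residual WNK2 kinase activity expressed as percent of uninhibited control, assayed in MOPS buffer at pH 7.0 containing EDTA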
# [59] = molecular target: Serine/threonine-protein kinase Nek7 (Homo sapiens) (UniProt Q8TDX7); details: at 1 µM
# [60] = molecular target: Serine/threonine-protein kinase Nek7 (Homo sapiens) (UniProt Q8TDX7); details: at 10 µM
# [61] = molecular target: RAC-alpha serine/threonine-protein kinase (Homo sapiens) (UniProt P31749); details: at 10 µM
compound,measurement,setting,value
O=C(c1cc2cc(O)ccc2[nH]1)c1cc2cc(O)ccc2[nH]1,residual activity,[1],98%
same,residual activity,[2],104%
same,residual activity,[3],88%
same,residual activity,[4],103%
same,residual activity,[5],82%
same,residual activity,[6],97%
same,residual activity,[7],inactive: 105%
same,residual activity,[8],96%
same,residual activity,[9],107%
same,residual activity,[10],101%
same,residual activity,[11],inactive: 92%
same,residual activity,[12],93%
same,residual activity,[13],87%
same,residual activity,[14],91%
same,residual activity,[15],91%
same,residual activity,[16],92%
same,residual activity,[17],97%
same,residual activity,[18],94%
same,residual activity,[19],94%
same,residual activity,[20],95%
same,residual activity,[21],96%
same,residual activity,[22],99%
same,residual activity,[23],86%
same,residual activity,[24],85%
same,residual activity,[25],inactive: 95%
same,residual activity,[26],82%
same,residual activity,[27],99%
same,residual activity,[28],98%
same,residual activity,[29],89%
same,residual activity,[30],102%
same,residual activity,[31],104%
same,residual activity,[32],93%
same,residual activity,[33],106%
same,residual activity,[34],101%
same,residual activity,[35],102%
CCN(CC)CCNC(=O)c1c(C)[nH]c(/C=C2\C(=O)Nc3ccc(Cl)cc32)c1C,residual activity,[36],83%
same,residual activity,[37],87%
same,residual activity,[38],84%
same,residual activity,[4],107%
same,residual activity,[39],109%
same,residual activity,[40],86%
same,residual activity,[41],104%
same,residual activity,[8],101%
same,residual activity,[42],84%
same,residual activity,[10],110%
same,residual activity,[43],85%
same,residual activity,[44],90%
same,residual activity,[45],91%
same,residual activity,[46],87%
same,residual activity,[47],95%
same,residual activity,[48],108%
same,residual activity,[49],88%
same,residual activity,[50],112%
same,residual activity,[51],101%
same,residual activity,[52],93%
same,residual activity,[53],111%
same,residual activity,[22],108%
same,residual activity,[54],106%
same,residual activity,[55],92%
same,residual activity,[56],113%
same,residual activity,[57],86%
same,residual activity,[58],inactive: 105%
same,residual activity,[25],inactive: 105%
same,residual activity,[26],85%
same,residual activity,[27],102%
same,residual activity,[59],inactive: 102%
same,residual activity,[60],inactive: 109%
same,residual activity,[61],103%
same,residual activity,[32],83%
same,residual activity,[34],94%
Cc1ccc(NC2=CC(=O)c3sc(C)nc3C2=O)cc1,residual activity,[4],105%
same,residual activity,[5],118%
same,residual activity,[25],inactive: 100%
same,residual activity,[26],76%
